Apparent affinities of Ab-95 variants for a coronavirus HR2 peptide

Target: peptide PDVDLGDISGINAS, taken from heptad repeat 2 (HR2) of SARS-CoV-2 spike.

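The starting antibody came from a phage panning campaign against this peptide. Library AAYL52 holds single substitutions and randomly drawn double and triple substitutions in the CDRs. The assay is AlphaSeq: two haploid yeast populations carry antibody and antigen on their surface. After mating in shaken culture at 30 °C for 16 h, diploids were selected and their barcode pairs sequenced. Each replicate has its own calibration line, from reference interactions of the BCL2 family. Mating was done three times.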

The variants keep the heavy chain, the linker and the frameworks of Ab-95 (scFv order VH, a 15-residue (Gly4Ser)3 linker, VL).
VH: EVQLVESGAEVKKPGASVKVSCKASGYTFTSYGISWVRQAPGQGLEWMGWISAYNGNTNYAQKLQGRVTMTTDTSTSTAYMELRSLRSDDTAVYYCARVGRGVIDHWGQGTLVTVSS
VL: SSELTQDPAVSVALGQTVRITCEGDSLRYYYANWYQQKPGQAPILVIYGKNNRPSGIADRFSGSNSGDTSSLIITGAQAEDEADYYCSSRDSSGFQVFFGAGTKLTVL

Sequences are complete VL domains. Values are log10 of the apparent Kd in nM; lower means stronger binding. Replicates are averaged; those with no signal do not enter the mean. "nd" means that the variant was in the library but no mating with the target was seen in that replicate; the authors take this as a sign of poor binding, and no number exists.

VL	log10 Kd (nM) by replicate	mean log10 Kd (nM)	signal with controls
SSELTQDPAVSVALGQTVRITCERDSLRYKYANWYQQKPGQAPILVIYGKNNRPSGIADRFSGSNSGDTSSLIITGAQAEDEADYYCSSRDSSGFQSFFGAGTKLTVL	nd / nd / nd	nd	1 of 9 (3.31)
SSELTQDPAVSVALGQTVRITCKGDQLRYYYANWYQQKPGQAPILVIYGKNNRPSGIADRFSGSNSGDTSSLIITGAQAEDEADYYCSSRDSSGFGVFFGAGTKLTVL	4.17 / nd / nd	4.17	4 of 9 (4.65)
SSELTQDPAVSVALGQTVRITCEGISLRYEYANWYQQKPGQAPILVIYGANNRPSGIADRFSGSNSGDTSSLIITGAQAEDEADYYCSSRDSSGFQVFFGAGTKLTVL	1.86 / 1.78 / 1.34	1.66	5 of 9 (4.40)
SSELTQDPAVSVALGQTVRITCEGDILRVYYANWYQQKPGQAPILVIYGKNNRPSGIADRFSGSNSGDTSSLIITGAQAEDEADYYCSYRDSSGFQVFFGAGTKLTVL	4.64 / nd / nd	4.64	2 of 9 (3.59)
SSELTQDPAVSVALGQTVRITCEGDSLRYYYANWYQQKPGQAPILVIYAKNYRPSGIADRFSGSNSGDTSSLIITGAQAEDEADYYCSSRDSEGFQVFFGAGTKLTVL	nd / nd / nd	nd	1 of 9 (5.26)
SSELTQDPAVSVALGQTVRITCEGDFLWYYYANWYQQKPGQAPILVIYGKNNRPSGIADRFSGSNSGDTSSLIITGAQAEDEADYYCASRDSSGFQVFFGAGTKLTVL	3.57 / 3.16 / nd	3.36	5 of 9 (4.26)
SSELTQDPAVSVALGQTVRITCEGDHLRYYYANWYQQKPGQAPILVIYGINNRPSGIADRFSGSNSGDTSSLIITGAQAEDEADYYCSSEDSSGFQVFFGAGTKLTVL	2.90 / 3.25 / 3.44	3.19	4 of 9 (3.94)
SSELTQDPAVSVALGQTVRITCEGESLRYYYANWYQQKPGQAPILVIYGKNNRESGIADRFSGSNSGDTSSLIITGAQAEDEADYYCSSDDSSGFQVFFGAGTKLTVL	3.76 / 2.72 / 1.89	2.79	3 of 9 (3.96)
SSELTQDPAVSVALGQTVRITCEGDSLRYYYANWYQQKPGQAPILVIYGKNNRPRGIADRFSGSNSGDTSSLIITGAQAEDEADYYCSSRDDFGFQVFFGAGTKLTVL	nd / 3.83 / 2.04	2.93	3 of 9 (3.77)
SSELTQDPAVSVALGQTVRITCEGDSLYPYYANWYQQKPGQAPILVIYGKNNRPSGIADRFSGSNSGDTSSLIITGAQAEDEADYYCSSRDPSGFQVFFGAGTKLTVL	2.90 / 2.54 / 2.03	2.49	3 of 9 (3.59)
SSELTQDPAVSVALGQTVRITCEGDMLRYYYANWYQQKPGQAPILVIYGKNNRESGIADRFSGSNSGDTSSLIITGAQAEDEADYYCSSRDSSGFQVFFGAGTKLTVL	2.60 / 2.32 / 1.99	2.30	2 of 9 (4.31)
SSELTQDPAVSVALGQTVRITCEGDYLRYYAANWYQQKPGQAPILVIYGKNDRPSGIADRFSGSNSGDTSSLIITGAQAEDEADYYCSSRDSSGFQVFFGAGTKLTVL	2.66 / 2.88 / 3.38	2.97	4 of 9 (3.52)
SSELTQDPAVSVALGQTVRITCCGDSLAYYYANWYQQKPGQAPILVIYGKNNRPSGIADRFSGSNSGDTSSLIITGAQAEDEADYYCSSRDSTGFQVFFGAGTKLTVL	nd / 5.64 / 3.84	4.74	2 of 9 (4.33)
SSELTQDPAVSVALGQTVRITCEGDSLRPYVANWYQQKPGQAPILVIYGKNNRPSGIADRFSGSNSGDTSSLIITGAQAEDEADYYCSDRDSSGFQVFFGAGTKLTVL	3.25 / 3.24 / nd	3.24	2 of 9 (4.58)
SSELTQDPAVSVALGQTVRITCEGDSLQYYYANWYQQKPGQAPILVIYGKLNRPSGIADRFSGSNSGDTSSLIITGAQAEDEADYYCSSRDSSGFQAFFGAGTKLTVL	4.44 / nd / nd	4.44	1 of 9 (3.36)

Extract of 2 entries:

VL	log10 Kd (nM) by replicate	mean log10 Kd (nM)	signal with controls
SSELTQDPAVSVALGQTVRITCEGDSLRYYYANWYQQKPGQAPILVIYGKNNRPRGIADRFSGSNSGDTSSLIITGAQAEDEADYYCSSRDDFGFQVFFGAGTKLTVL	nd / 3.83 / 2.04	2.93	3 of 9 (3.77)
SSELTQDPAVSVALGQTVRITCEGDHLRYYYANWYQQKPGQAPILVIYGINNRPSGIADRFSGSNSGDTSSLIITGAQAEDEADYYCSSEDSSGFQVFFGAGTKLTVL	2.90 / 3.25 / 3.44	3.19	4 of 9 (3.94)

Three control strains display no target. For library AAYL52, 28% of the pairings with them gave a signal, with a median of 3.91 and one signal in twenty below 2.90, so weak values seen in few replicates may be background. Also given: how often the same scFv was detected with the empty control strains, with their mean in brackets. In this assay the parent's reference entry averaged 2.31; its copy inside this library read 2.25.

The measurements come from Engelhart et al. 2022 (doi:10.1038/s41597-022-01779-4) through the FLAb antibody collection.